Source: ChEMBL document CHEMBL1134685, “Antitumor Agents. 211. Fluorinated 2-phenyl-4-quinolone derivatives as antimitotic antitumor agents” (J Med Chem, 2001)

By UniProt entry, the sequences of proteins in these tests, tags left out.
UniProt P02550, whole entry, looked up: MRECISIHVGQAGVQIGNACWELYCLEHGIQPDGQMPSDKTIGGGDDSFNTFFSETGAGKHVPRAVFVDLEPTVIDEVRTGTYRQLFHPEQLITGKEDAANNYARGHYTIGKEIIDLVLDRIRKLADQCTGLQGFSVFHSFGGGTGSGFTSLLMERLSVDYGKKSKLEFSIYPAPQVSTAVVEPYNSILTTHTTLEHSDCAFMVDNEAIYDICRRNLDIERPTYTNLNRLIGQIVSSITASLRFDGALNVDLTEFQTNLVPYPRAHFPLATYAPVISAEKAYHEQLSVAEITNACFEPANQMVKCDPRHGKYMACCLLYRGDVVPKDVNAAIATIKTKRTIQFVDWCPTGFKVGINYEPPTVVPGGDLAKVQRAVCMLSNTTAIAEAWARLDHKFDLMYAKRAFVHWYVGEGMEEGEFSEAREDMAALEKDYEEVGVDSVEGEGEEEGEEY

Target: Tubulin alpha chain (Sus scrofa, UniProt P02550)
Assay: Inhibition of tubulin polymerization. (ITP)

`Fc1ccccc1-c1cc(S)c2cc3c(cc2n1)OCO3` showed an IC50 of 24 µM.
